Results on 2 compounds are retold here after article PMC5425475 (Frontiers in Systems Neuroscience, 2017).

Sequences of proteins named here, by UniProt entry; tags and fusion partners are left off.
UniProt Q8INQ6, entry or part of it: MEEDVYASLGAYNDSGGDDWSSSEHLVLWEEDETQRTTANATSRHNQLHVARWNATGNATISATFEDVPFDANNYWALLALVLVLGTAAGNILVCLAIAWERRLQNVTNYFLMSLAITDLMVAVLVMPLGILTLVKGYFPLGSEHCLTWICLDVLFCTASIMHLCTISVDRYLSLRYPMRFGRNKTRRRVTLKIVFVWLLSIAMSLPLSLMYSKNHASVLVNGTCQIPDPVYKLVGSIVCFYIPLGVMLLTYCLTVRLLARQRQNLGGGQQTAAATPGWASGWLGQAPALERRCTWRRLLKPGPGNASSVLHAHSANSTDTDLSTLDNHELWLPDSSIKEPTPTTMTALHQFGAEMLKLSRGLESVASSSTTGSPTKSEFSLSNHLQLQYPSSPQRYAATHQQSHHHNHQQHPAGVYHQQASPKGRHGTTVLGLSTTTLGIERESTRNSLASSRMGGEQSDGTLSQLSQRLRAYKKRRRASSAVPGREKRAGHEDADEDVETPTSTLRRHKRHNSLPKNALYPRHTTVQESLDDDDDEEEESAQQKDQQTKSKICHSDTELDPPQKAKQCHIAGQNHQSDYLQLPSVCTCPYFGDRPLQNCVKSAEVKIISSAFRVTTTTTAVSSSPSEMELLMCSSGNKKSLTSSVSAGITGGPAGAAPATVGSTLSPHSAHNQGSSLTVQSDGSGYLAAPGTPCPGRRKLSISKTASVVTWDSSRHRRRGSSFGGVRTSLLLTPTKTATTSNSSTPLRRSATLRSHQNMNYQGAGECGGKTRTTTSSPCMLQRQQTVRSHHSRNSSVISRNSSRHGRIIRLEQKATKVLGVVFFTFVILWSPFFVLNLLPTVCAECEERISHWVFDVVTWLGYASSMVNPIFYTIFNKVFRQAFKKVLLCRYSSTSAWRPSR

For this assay, the target named is Dm5-HT2B (Drosophila melanogaster, UniProt Q8INQ6). The assay can be described thus: Ca2+ fluorimetry (Fluo-4), antagonists on serotonin-stimulated Dm5-HT2B-expressing HEK 293 cells. To be noted: for Maximal inhibition: relative efficacy, signal with 10^-7 M serotonin = 100%. Type of assay: cell-based. As to the method:
The ability of the Dm5-HT2B-HA receptor (hereafter referred to as Dm5-HT2B) to activate Gq proteins was assessed by monitoring changes in [Ca^2+]i with the Ca^2+-sensitive fluorescent dye Fluo-4 (Invitrogen). Non-transfected HEK 293 cells and cells expressing Dm5-HT2B were grown in minimal essential medium (MEM + GlutaMAX^TMI (Gibco/ThermoFisher Scientific, Darmstadt, Germany) containing 2% (w/v) Utroser^TM G (Pall, Dreieich, Germany), 1 × non-essential amino acids and 1 × antibiotics/antimycotics) in 96-well plates to a density of ∼3 × 10^4 cells per well. In this format, each vertical row (=8 wells) of the 96-well plate is incubated with the same ligand concentration. Cells were loaded at room temperature with Fluo-4 as described earlier ([Thamm et al., 2013]; [Blankenburg et al., 2015]) in extracellular solution [ES = in mM: 120 NaCl, 5 KCl, 2 MgCl2, 2 CaCl2, 10 HEPES, 10 Glucose, pH 7.4 (NaOH)]. Plates were transferred into a fluorescence reader (FLUOstar Galaxy/Optima; BMG Labtech, Offenburg, Germany) to monitor Fluo-4 fluorescence. The excitation wavelength was 485 nm, and fluorescence emission was detected at 520 nm. Various concentrations of biogenic amines and synthetic receptor ligands were added, once Fluo-4 fluorescence had reached a stable value in each well. The changes in Fluo-4 fluorescence were recorded automatically. Concentration-response curves for putative agonists/antagonists were established in at least two independent experiments with octuplicate determinations (s.a.) per data point.
Next, we examined the ability of potential receptor antagonists for impairing Dm5-HT2B activity.

Structures are written as SMILES.

Compound `CN1CCC(=C2c3ccccc3C=Cc3ccccc32)CC1` [Cyproheptadine, cyproheptadine] showed a Maximal inhibition of 35%. The compound `CN1CCN2c3ccccc3Cc3ccccc3C2C1` (stereo not drawn) [Mianserin, mianserin] gave a Maximal inhibition of 75%. For the setting “residual signal at maximal inhibition”, the “serotonin-evoked Ca2+ response reduced to % of control measurements without antagonist” value was 25%.
